Laboratory results published in patent publication US8466164B2.

The chains behind the UniProt entries cited, without tags or fusion partners.
UniProt P12931, whole entry: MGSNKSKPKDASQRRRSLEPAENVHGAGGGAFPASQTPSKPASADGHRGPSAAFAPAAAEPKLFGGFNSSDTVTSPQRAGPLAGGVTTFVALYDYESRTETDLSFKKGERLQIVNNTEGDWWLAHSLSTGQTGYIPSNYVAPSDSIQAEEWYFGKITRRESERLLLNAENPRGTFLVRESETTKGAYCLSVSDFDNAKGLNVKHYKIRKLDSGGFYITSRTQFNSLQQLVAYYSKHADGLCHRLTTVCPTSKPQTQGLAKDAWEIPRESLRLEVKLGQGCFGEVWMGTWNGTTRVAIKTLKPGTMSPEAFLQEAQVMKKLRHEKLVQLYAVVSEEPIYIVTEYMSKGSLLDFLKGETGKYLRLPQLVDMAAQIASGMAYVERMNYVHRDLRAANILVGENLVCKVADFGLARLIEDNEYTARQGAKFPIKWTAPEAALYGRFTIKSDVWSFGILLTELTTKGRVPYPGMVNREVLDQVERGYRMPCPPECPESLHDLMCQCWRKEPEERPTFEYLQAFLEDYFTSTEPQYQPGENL

Key:
[1] = system: SaOS-2 cells; test: MTT cell viability assay on SaOS-2; settings: SaOS-2, MTT, 48 h treatment, 25 μM, control = 100%; mean ± SD
[2] = biological target: recombinant human Src (Homo sapiens, UniProt P12931); test: cell-free Src enzymatic assay; format: biochemical; settings: read-out: Ki toward recombinant human Src; calculated from ID50; triplicate, mean values

| Ki [2] [µM] | Structure (SMILES) | CV (%) after 48 h (cellular viability with respect to control) [1] [%] |
| --- | --- | --- |
|  | CCCCNc1nc(SC)nc2c1cnn2CC(Cl)c1ccc(Cl)cc1 (stereo not drawn) | 93.6 ± 3.1 |
| 1.2 | ClC(Cn1ncc2c(NCc3ccccc3)nc(SC3CCCC3)nc21)c1ccccc1 (stereo not drawn) |  |
|  | CCCCNc1nc(SC)nc2c1cnn2CC(Cl)c1ccc(F)cc1 (stereo not drawn) | 59.1 ± 1.9 |
